Laboratory results from article PMC3252304, “Hydroxybenzothiazoles as New Nonsteroidal Inhibitors of 17β-Hydroxysteroid Dehydrogenase Type 1 (17β-HSD1)” (PLoS ONE, 2012).

What was measured:
[1] = molecular target: T1, human 17β-HSD1 (Homo sapiens, UniProt P14061); assay: 17β-HSD1 cell free assay (placental cytosolic enzyme, [3H]E1 to E2, HPLC radiodetection); type: biochemical; conditions: human placenta cytosolic fraction, [3H]E1 + E1 500 nM, NADH 500 µM; mean of three determinations
T1 construct: In the cell free assay, the placental cytosolic enzyme was used; from tissue; host or cells: human placenta, cytosolic fraction, ammonium sulfate precipitate
T1 sequence (P14061 1-328): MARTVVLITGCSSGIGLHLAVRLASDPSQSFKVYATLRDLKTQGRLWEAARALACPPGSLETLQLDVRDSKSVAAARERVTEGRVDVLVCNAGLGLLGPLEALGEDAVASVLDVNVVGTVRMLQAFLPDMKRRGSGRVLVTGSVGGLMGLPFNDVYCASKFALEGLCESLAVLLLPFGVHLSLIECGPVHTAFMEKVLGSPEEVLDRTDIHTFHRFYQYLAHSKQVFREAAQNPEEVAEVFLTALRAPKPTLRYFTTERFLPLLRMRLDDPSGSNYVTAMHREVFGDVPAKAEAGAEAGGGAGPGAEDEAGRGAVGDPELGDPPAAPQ
Experimental: In the cell free assay, the placental cytosolic enzyme was used. Tritiated E1 (final concentration: 500 nM) was incubated with 17β-HSD1, NADH (500 µM), and inhibitor as previously described. After high performance liquid chromatography (HPLC) separation of substrate and product, the amount of labeled E2 formed was quantified. […] IC50 values were determined for compounds showing more than 70% inhibition at 1 µM. Compound 2 (Figure 1), identified in a previous study, was used as internal reference (IC50 = 8 nM).
17β-HSD1 and 17β-HSD2 were obtained from human placenta according to previously described procedures. Fresh human placenta was homogenized and cytosolic fraction and microsomes were separated by centrifugation. For the partial purification of 17β-HSD1, the cytosolic fraction was precipitated with ammonium sulfate. 17β-HSD2 was obtained from the microsomal fraction.
Inhibition of 17β-HSD1. Inhibitory activities were evaluated by an established method with minor modifications. […] Detection and quantification of the steroids were performed using a radioflow detector (Berthold Technologies, Bad Wildbad). The conversion rate was calculated after analysis of the resulting chromatograms according to the following equation: % conversion = % E2/(% E2 + % E1) × 100. Each value was calculated from at least three independent experiments.

[2] = molecular target: T2, 17β-HSD1 in T47-D cells (Homo sapiens, UniProt P14061); assay: Intracellular potency: inhibition of E2 formation in T47-D cells; type: cell-based; conditions: labeled E1 50 nM, 0.5 h incubation
T2 construct: cell line (obtained from ECACC, Salisbury) that expresses 17β-HSD1; host or cells: T47-D cells
T2 sequence (P14061 1-328): T1 sequence (P14061 1-328)

For `O=C(Nc1nc2ccc(O)cc2s1)c1cccc(O)c1` [Compound 21], the pIC50 [1] was 6.61 and the pIC50 [2] was 6.61.

pIC50: −log10 of the molar value.
